Measurements taken from US4761478A, “3-deazaguanine sulfonic acid salts” (Warner-Lambert Company, priority 1986, dated 1988).

Assay: Water solubility of 3-deazaguanine and its acid addition salts (Table I)
Assay type: physicochemical
Conditions: 3-deazaguanine salts
Method: The common acids employed for the formulation of acid addition salts of pharmaceutical bases are listed in J. Pharm. […] The solubility values presented in Table I were determined as follows: 3-deazaguanine (250 mg) was suspended in a small volume of water and one equivalent weight of the acid was added with stirring. Stirring was continued and small volumes of water were added intermittently until complet solution was obtained.

## Hydrochloric
  water solubility (in words): poorly soluble
